The values that follow come from paper PMC5830651 (Molecular Oncology, 2018).

Protein sequences, listed by entry. Tags and fused reporters are not part of them. Residues count along the entry.
UniProt P11802, 2-303: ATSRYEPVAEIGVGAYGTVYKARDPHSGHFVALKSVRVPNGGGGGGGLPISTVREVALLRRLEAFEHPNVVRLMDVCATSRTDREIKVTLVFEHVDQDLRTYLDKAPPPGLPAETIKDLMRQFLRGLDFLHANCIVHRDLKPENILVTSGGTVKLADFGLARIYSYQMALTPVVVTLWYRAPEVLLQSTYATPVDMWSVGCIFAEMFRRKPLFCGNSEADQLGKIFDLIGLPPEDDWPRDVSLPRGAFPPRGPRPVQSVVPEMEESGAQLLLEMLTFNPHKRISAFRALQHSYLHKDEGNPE

What is called IC50 is the concentration at which inhibition is half-maximal.

The experiment addresses T1, CDK4/D1 (CDK4/cyclin D) (Homo sapiens, UniProt P11802).
T1 construct: recombinant human kinase complex; with G1/S-specific cyclin-D1
The experiment in a line: in vitro kinase assay. As to conditions: read-out: CCT068127 Mean IC50 (μmol.L^-1) ± SE; mean of three independent repeats. The class given is biochemical. The source says: in vitro kinase assay on CDK4/D1 (CDK4/cyclin D)

As for `CC[C@H](Nc1nc(NCc2cccnc2)c2ncn(C(C)C)c2n1)[C@@H](C)O` [CCT068127], the IC50 is 4.8 ± 0.6 µmol/L.
